Permeability data for macrocyclic peptides

Source: CycPeptMPDB (Li et al. 2023), which took these values from Townsend et al. 2020, doi:10.26434/chemrxiv.13335941.v1.

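Conditions beyond the assay type are not listed; see the original paper. Other peptides of the study may be missing here. Peptides that the database sets to -10, its floor, are left out.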

PAMPA measures passive passage through an artificial lipid membrane. Values are log10 P with P in cm/s, so -5 is more permeable than -7.

* CC(C)C[C@@H]1NC(=O)[C@H]2CCCN2C(=O)CN(Cc2ccccc2)C(=O)[C@@H](CC(C)C)N(C)C(=O)[C@H](C)NC(=O)[C@@H]2CCCN2C(=O)[C@H](Cc2ccccc2)NC1=O: PAMPA -6.11 (log10 cm/s)
* CC(C)C[C@@H]1C(=O)N[C@@H](Cc2ccccc2)C(=O)N[C@@H](C)C(=O)N(C)[C@@H](CC(C)C)C(=O)N[C@@H](Cc2ccccc2)CC(=O)N2CCC[C@H]2C(=O)N1C: PAMPA -6.02 (log10 cm/s)
* CC(C)C[C@@H]1NC(=O)CN(Cc2ccccc2)C(=O)[C@H](C)N(C)C(=O)[C@H]2CCCN2C(=O)[C@H](Cc2ccccc2)NC(=O)[C@H](CC(C)C)N(C)C(=O)[C@H]2CCCN2C1=O: PAMPA -5.39 (log10 cm/s)
* CC(C)C[C@@H]1C(=O)N(C)[C@H](CC(C)C)C(=O)N2CCC[C@H]2C(=O)N[C@H](CC(C)C)C(=O)N[C@@H](Cc2ccccc2)C(=O)N(C)[C@H](C)C(=O)N1C: PAMPA -4.82 (log10 cm/s)
* CC(C)C[C@@H]1NC(=O)[C@@H]2CCCN2C(=O)CN(Cc2ccccc2)C(=O)[C@@H](CC(C)C)NC(=O)[C@H](C)N(C)C(=O)[C@H](Cc2ccccc2)NC1=O: PAMPA -5.44 (log10 cm/s)
* CC(C)C[C@@H]1NC(=O)[C@@H](CC(C)C)N(C)C(=O)[C@H](C)N(C)C(=O)[C@H]2CCCN2C(=O)[C@H](Cc2ccccc2)NC(=O)[C@H](CC(C)C)N(C)C(=O)[C@H]2CCCN2C1=O: PAMPA -4.97 (log10 cm/s)
* CCCN1CC(=O)N(C)[C@@H](CC(C)C)C(=O)N(C)[C@H](CC(C)C)C(=O)N2CCC[C@@H]2C(=O)N(C)[C@H](CC(C)C)C(=O)N[C@@H](Cc2ccccc2)C(=O)N2CCC[C@@H]2C1=O: PAMPA -5.29 (log10 cm/s)
* CCCN1CC(=O)N[C@H](CC(C)C)C(=O)N(Cc2ccccc2)CC(=O)N2CCC[C@H]2C(=O)N(C)[C@H](CC(C)C)C(=O)N[C@@H](Cc2ccccc2)C(=O)N2CCC[C@H]2C1=O: PAMPA -5.87 (log10 cm/s)
* CC(C)C[C@H]1NC(=O)[C@H](C)NC(=O)[C@H]2CCCN2C(=O)[C@H](Cc2ccccc2)NC(=O)CN(Cc2ccccc2)C(=O)[C@@H]2CCCN2C(=O)CN(Cc2ccccc2)C1=O: PAMPA -5.66 (log10 cm/s)
* CC(C)C[C@@H]1C(=O)N2CCC[C@@H]2C(=O)N(C)[C@@H](CC(C)C)C(=O)N[C@@H](Cc2ccccc2)C(=O)N2CCC[C@@H]2C(=O)N[C@H](C)C(=O)N[C@H](CC(C)C)C(=O)N1C: PAMPA -6.11 (log10 cm/s)
* CC(C)C[C@@H]1NC(=O)[C@H](C)N(C)C(=O)[C@@H]2CCCN2C(=O)[C@H](Cc2ccccc2)NC(=O)[C@H](CC(C)C)N(C)C(=O)[C@H]2CCCN2C(=O)[C@H](CC(C)C)NC1=O: PAMPA -5.57 (log10 cm/s)
* CC(C)C[C@@H]1NC(=O)[C@@H](C)NC(=O)[C@@H]2CCCN2C(=O)[C@H](Cc2ccccc2)NC(=O)[C@H](CC(C)C)NC(=O)[C@@H]2CCCN2C(=O)C[C@H](Cc2ccccc2)NC1=O: PAMPA -6.70 (log10 cm/s)
* CC(C)C[C@H]1NC(=O)C[C@H](Cc2ccccc2)NC(=O)[C@H]2CCCN2C(=O)[C@H](Cc2ccccc2)NC(=O)[C@H](CC(C)C)N(C)C(=O)[C@@H]2CCCN2C(=O)C[C@H](Cc2ccccc2)NC1=O: PAMPA -5.63 (log10 cm/s)
* CC(C)C[C@@H]1NC(=O)[C@@H](CC(C)C)N(C)C(=O)[C@H](C)N(C)C(=O)[C@H](Cc2ccccc2)NC(=O)[C@@H](CC(C)C)NC(=O)[C@H]2CCCN2C1=O: PAMPA -5.51 (log10 cm/s)
* CC(C)C[C@@H]1C(=O)N(Cc2ccccc2)CC(=O)N2CCC[C@H]2C(=O)N(Cc2ccccc2)CC(=O)N[C@@H](Cc2ccccc2)C(=O)N2CCC[C@@H]2C(=O)N(C)[C@H](C)C(=O)N1C: PAMPA -5.84 (log10 cm/s)
* CC(C)C[C@@H]1C(=O)N(Cc2ccccc2)CC(=O)N2CCC[C@H]2C(=O)N[C@H](CC(C)C)C(=O)N[C@@H](Cc2ccccc2)C(=O)N2CCC[C@H]2C(=O)N[C@@H](Cc2ccccc2)CC(=O)N1C: PAMPA -6.18 (log10 cm/s)
* CC(C)C[C@@H]1NC(=O)[C@H]2CCCN2C(=O)[C@H](CC(C)C)N(C)C(=O)[C@H](CC(C)C)N(C)C(=O)[C@H](C)N(C)C(=O)[C@H]2CCCN2C(=O)[C@H](Cc2ccccc2)NC1=O: PAMPA -5.70 (log10 cm/s)
* CCCN1CC(=O)N(C)[C@@H](CC(C)C)C(=O)N(Cc2ccccc2)CC(=O)N2CCC[C@@H]2C(=O)N[C@@H](CC(C)C)C(=O)N[C@@H](Cc2ccccc2)C(=O)N2CCC[C@@H]2C1=O: PAMPA -5.81 (log10 cm/s)
* CC(C)C[C@@H]1NC(=O)[C@@H](C)NC(=O)[C@H](Cc2ccccc2)NC(=O)[C@H](CC(C)C)N(C)C(=O)[C@H]2CCCN2C(=O)CN(Cc2ccccc2)C1=O: PAMPA -5.04 (log10 cm/s)
* CC(C)C[C@H]1NC(=O)[C@H]2CCCN2C(=O)[C@H](CC(C)C)N(C)C(=O)[C@@H](CC(C)C)NC(=O)C[C@H](Cc2ccccc2)NC(=O)[C@H](Cc2ccccc2)NC1=O: PAMPA -5.60 (log10 cm/s)
* CC(C)C[C@@H]1C(=O)N[C@H](CC(C)C)C(=O)N2CCC[C@H]2C(=O)N[C@H](CC(C)C)C(=O)N[C@@H](Cc2ccccc2)C(=O)N[C@@H](C)C(=O)N1C: PAMPA -5.95 (log10 cm/s)

The first 3 entries again:

* CC(C)C[C@@H]1NC(=O)[C@H]2CCCN2C(=O)CN(Cc2ccccc2)C(=O)[C@@H](CC(C)C)N(C)C(=O)[C@H](C)NC(=O)[C@@H]2CCCN2C(=O)[C@H](Cc2ccccc2)NC1=O: PAMPA -6.11 (log10 cm/s)
* CC(C)C[C@@H]1C(=O)N[C@@H](Cc2ccccc2)C(=O)N[C@@H](C)C(=O)N(C)[C@@H](CC(C)C)C(=O)N[C@@H](Cc2ccccc2)CC(=O)N2CCC[C@H]2C(=O)N1C: PAMPA -6.02 (log10 cm/s)
* CC(C)C[C@@H]1NC(=O)CN(Cc2ccccc2)C(=O)[C@H](C)N(C)C(=O)[C@H]2CCCN2C(=O)[C@H](Cc2ccccc2)NC(=O)[C@H](CC(C)C)N(C)C(=O)[C@H]2CCCN2C1=O: PAMPA -5.39 (log10 cm/s)